# Laboratory results reported in US20250186563A1, “UNIT DOSE FORMULATION OF ANTIDOTES FOR FACTOR XA INHIBITORS AND METHODS OF USING THE SAME” (Alexion Pharmaceuticals, Inc., priority 2009, published 2025).
# B1: r-Antidote: fXa derivative lacking the 6-39 amino acid residues of SEQ ID NO. 3, expressed in CHO cells, after removal of the linker (SEQ ID NO. 13) (protein)
# chain: ANSFLFWNKYKDGDQCETSPCQNQGKCKDGLGEYTCTCLEGFEGKNCELFTRKLCSLDNGDCDQFCHEEQNSVVCSCARGYTLADNGKACIPTGPYPCGKQTLERIVGGQECKDGECPWQALLINEENEGFCGGTILSEFYILTAAHCLYQAKRFKVRVGDRNTEQEEGGEAVHEVEVVIKHNRFTKETYDFDIAVLRLKTPITFRMNVAPACLPERDWAESTLMTQKTGIVSGFGRTHEKGRQSTRLKMLEVPYVDRNSCKLSSSFIITQNMFCAGYDTKQEDACQGDAGGPHVTRFKDTYFVTGIVSWGEGCARKGKYGIYTKVTAFLKWIDRSMKTRGLPKAKSHAPEVITSSPLK
# What was measured:
# [1] = tested on: aPTT of pooled human plasma; test: aPTT human plasma clotting assay (MLA Electra 800 coagulation timer); type: biochemical
# [2] = set-up: species or system Sprague-Dawley rats; conditions: rat, in vivo
# Experimental: One mg of antidote was administered as a short intravenous infusion over five minutes to four Sprague-Dawley rats. Serial plasma samples were collected and analyzed for antidote concentration using an enzyme linked immunosorption assay (ELISA, Enzyme Research Laboratory, Cat #: FX-EIA). Plasma concentration-time profiles of the antidote was described by a two compartment model. […] If immediate and near complete reversal of anticoagulation has to be achieved in a patient, based on rat experiments (Examples 18, 19, 20 and 22) the ratio of r-Antidote concentration to circulating fXa inhibitor concentration is expected to be targeted at around 2. Thus, to immediately maintain antidote plasma concentration above that of a fXa inhibitor, the distribution half-life is expected to have a much bigger impact than the terminal half-life on the human dose selection during an overdose treatment.
# [3] = tested on: rivaroxaban-induced anticoagulation; test: Reversal of rivaroxaban-induced anticoagulation by IV r-Antidote in rats; type: in vivo
# Experimental: Blood sampling catheter patency was maintained by slow infusion of normal saline between samples. […] Whole blood INR and PT measurements were determined on a Hemochron Jr using the citrated PT cartridges. Whole blood INR and PT are used for monitoring patients under warfarin anticoagulation and are reported as validated methods for evaluating extent of anticoagulation. […] The anticoagulation status of dosed rats was quantitated by a point of care clotting assay (Whole Blood INR).
# Blood sampling catheter patency was maintained by slow infusion of normal saline between samples. […] Quantitation was performed using a calibration standard curve generated from weighted least square regression analysis.
# Rats were anesthetized and catheterized as described in example 18. […] Whole blood INR/PT was determined as described in Example 18. r-Antidote concentrations were determined by ELISA as described in Example 23. […] Quantitation was performed using a calibration standard curve generated from weighted least square regression analysis.
# [4] = tested on: blood loss due to enoxaparin; type: in vivo, Sprague-Dawley rats; conditions: enoxaparin 4.5 mg/kg IV bolus
# Experimental: The effect of r-Antidote on reversal of blood loss due to enoxaparin anticoagulation was tested in Sprague-Dawley rats. Specifically, rat tail transection blood loss model for restoration of hemostasis was employed. The enoxaparin was dosed by IV bolus (4.5 mg/kg). The r-Antidote was administered as two doses: 1) a 2 milligram bolus and then infused at a rate of 2 mg/hour for a total of 15 minutes; and 2) a 4 milligram bolus and then infused at a rate of 4 mg/hour for a total of 15 minutes. Blood loss reversal was also tested using the vehicle. Immediately after the bolus injection of the r-Antidote was complete and the infusion started, the tip of the rat's tail was transected with a scalpel blade and placed into a vial containing physiological saline at 37° C. The tail was allowed to bleed for 15 minutes. The resulting blood volume was determined by lysis of red blood cells, measuring the hemoglobin concentration spectrophotometrically and estimating the blood volume by comparison against a standard curve. Decreased blood loss correlated with both r-Antidote plasma concentrations (r^2=0.80) and a reduction of anti-fXa units (r^2=0.89). The results are provided in FIG. 38 (AD refers to the r-Antidote).
# The anti-fXa units and rfXa antidote concentration refer to the levels obtained at the 15 minute time point—just prior to tail transection.
# [5] = tested on: clot formation in human platelet poor plasma; test: Clotting prolongation assay, 96-well plate format (OD405 turbidity); type: biochemical
# Experimental: Two clotting assay formats were used to test the effects of factor Xa inhibitors and the antidote on clotting prolongation. In the first format, a 96-well plate was used to measure multiple samples at the same time. In the second assay format, aPTT was measured with a conventional coagulation instrument (MLA Electra 800 automatic coagulation timer).
# In the 96-well plate format method, human platelet poor plasma or platelet rich plasma was prepared similarly as procedures in Example 2. 75-100 μL plasma was recalcified with CaCl2), incubated at 37° C. for 3 minutes and clot formation was initiated by adding tissue factor (Innovin, Dade Behring) or an aPTT reagent (Actin FS, Dade Behring). Change of OD405 was monitored continuously by a plate reader (Molecular Devices). Clotting time was defined as the time (second) when the half maximal value of absorbance (OD405 nm) change was reached. Factor Xa inhibitor and antidote, when present, were pre-incubated with plasma at room temperature for 20 minutes before initiation of the reaction.
# In FIG. 18, the effect of r-Antidote to reverse the inhibitory effect of LMWH enoxaparin (Sanofi-Aventis) was tested by turbidity changes in human plasma. Enoxaparin (0-1.25 U/mL) was incubated at 22° C. for 20 min with or without 508 nM r-Antidote. Turbidity changes were measured according to procedures described in Example 3. 508 nM r-Antidote substantially corrected (>75%) the inhibitory effect of 0.3125-1.25 U/mL Enoxaparin.
# A turbidity assay was used to test the effect of fXa inhibitors and r-Antidote on prolongation of clotting times. In this format, a 96-well plate was used to measure multiple samples at the same time. Human platelet poor plasma was prepared as in Example 2. […] Change of OD405 was monitored continuously by a plate reader (Molecular Devices). Clotting time was defined as the time (seconds) for reaching the half maximal value for change in absorbance (OD405 nm). […]
# [6] = 300 nM Betrixaban + 570 nM r-Antidote
# [7] = 300 nM Betrixaban + 760 nM r-Antidote
# [8] = 300 nM Betrixaban + […] r-Antidote
# [9] = 400 nM Betrixaban + 380 nM rAntidote
# [10] = 400 nM Betrixaban + 570 nM rAntidote
# [11] = 400 nM Betrixaban + 760 nM rAntidote
# [12] = 400 nM Betrixaban + 1520 nM rAntidote
# [13] = 400 nM Betrixaban + […] rAntidote
# [14] = rats, r-Antidote 4 mg IV bolus + 4 mg/hr infusion
molecule,measurement,setting,value
B1,% Correction of anticoagulation,[1]; [6],88%
same,Fold Change,[1]; [6],1.09
same,aPTT,[1]; [6],38.3 s
same,% Correction of anticoagulation,[1]; [7],88%
same,Fold Change,[1]; [7],1.09
same,aPTT,[1]; [7],38.2 s
same,% Correction of anticoagulation,[1]; [8],90%
same,Fold Change,[1]; [8],1.08
same,aPTT,[1]; [8],38.1 s
same,% Correction of anticoagulation,[1]; [9],61%
same,Fold Change,[1]; [9],1.34
same,aPTT,[1]; [9],47.1 s
same,% Correction of anticoagulation,[1]; [10],85%
same,Fold Change,[1]; [10],1.13
same,aPTT,[1]; [10],39.9 s
same,% Correction of anticoagulation,[1]; [11],85%
same,Fold Change,[1]; [11],1.13
same,aPTT,[1]; [11],39.9 s
same,% Correction of anticoagulation,[1]; [12],86%
same,Fold Change,[1]; [12],1.12
same,aPTT,[1]; [12],39.4 s
same,% Correction of anticoagulation,[1]; [13],92%
same,Fold Change,[1]; [13],1.07
same,aPTT,[1]; [13],37.8 s
same,Fold Change,[1]; 1520 nM rAntidote alone,1.10
same,aPTT,[1]; 1520 nM rAntidote alone,38.8 s
same,"Volume of distribution, Vc",[2],13 mL
same,Systemic clearance,[2]; iv,1.65 mL/min/kg
same,distribution half-life,[2]; iv,0.317 h
same,terminal half-life,[2]; iv,10 h
same,volume of distribution,[2]; iv,0.27 L/kg
same,free (unbound) fraction of rivaroxaban upon r-antidote dosing,"[3]; anticoagulated rats, r-Antidote 1.0 or 3.4 mg IV bolus",dose responsive reduction
same,free (unbound) concentration of rivaroxaban upon r-Antidote dosing,[3]; [14],greatly reduced
same,reversal of rivaroxaban-induced anticoagulation (whole blood INR and PT ratio),[3]; [14],sustained reversal
same,reversal of the effect of rivaroxaban (whole blood INR),"[3]; rats, rivaroxaban 0.25 mg/kg/hr IV 30 min, r-Antidote 1.0 or 3.4 mg IV bolus",dose responsive reversal
same,"blood loss due to enoxaparin, reduced to",[4]; r-Antidote 2 mg bolus + 2 mg/hr infusion,42%
same,reversal of blood loss due to enoxaparin,[4]; r-Antidote 4 mg bolus + 4 mg/hr infusion,completely reversed
same,correction of inhibitory effect of enoxaparin,"[5]; 508 nM r-Antidote, enoxaparin 0.3125-1.25 U/mL",> 75%
same,correction of aPTT (reversal of enoxaparin),"[5]; 4 uM r-Antidote, enoxaparin 1 fXa Unit/ml",near complete correction
